Laboratory results: PubChem BioAssay AID601 (SRMLSC, 2007)
This is a selection; strong and weak results do not stand in their true shares. Active and inactive are the calls of the source.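 The calls were made as follows: active = viability loss from added drug above about 55%, and viability with drug at most 40%, in both replicates (limit read from the data, passing the limit was not always enough); inconclusive = both conditions met in only one replicate; inactive = neither replicate meets both conditions.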

Experiment: reversal of MRP1-mediated doxorubicin resistance, pilot screen, H69AR cells, doxorubicin co-treatment (AID 601)
Details: H69AR cells + 2 uM doxorubicin, CellTiter-Glo, 72 h; at 10 µM; active compounds read high

| Compound | differential viability (reversal) |
| --- | --- |
| Cc1ccc(C)c(NP(C)(=O)Oc2ccccc2)c1 (stereo not given) | inactive: 3.86% |
| CP(=S)(Nn1cnnc1)Oc1ccccc1 (stereo not given) | inactive: -10% |
| CP(=O)(Nc1ccccn1)Oc1ccccc1 (stereo not given) | inactive: 4.43% |
| CN(C)CCOC(=O)C(O)(c1ccccc1)C1CCCCC1 (stereo not given) | inactive: 10% |
| CP(=O)(Nc1ccc2c(c1)OCCO2)Oc1ccccc1 (stereo not given) | inactive: -0.85% |
